Chains of the proteins cited; added tags and fusions are not shown.
UniProt P08172, whole entry: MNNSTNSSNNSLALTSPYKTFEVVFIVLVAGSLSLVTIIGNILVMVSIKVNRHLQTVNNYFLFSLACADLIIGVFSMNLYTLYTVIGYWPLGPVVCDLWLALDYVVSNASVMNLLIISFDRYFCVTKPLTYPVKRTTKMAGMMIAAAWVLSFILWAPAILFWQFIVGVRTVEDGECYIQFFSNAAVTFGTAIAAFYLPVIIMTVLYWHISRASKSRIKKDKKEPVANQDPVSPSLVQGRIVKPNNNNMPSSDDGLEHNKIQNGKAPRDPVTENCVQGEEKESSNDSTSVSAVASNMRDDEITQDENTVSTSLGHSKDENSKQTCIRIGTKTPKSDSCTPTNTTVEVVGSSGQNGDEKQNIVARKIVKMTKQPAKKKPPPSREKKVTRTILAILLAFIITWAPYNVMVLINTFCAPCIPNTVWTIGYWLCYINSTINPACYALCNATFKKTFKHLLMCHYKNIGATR

According to ChEMBL document CHEMBL4049434, “Radiolabeled Dibenzodiazepinone-Type Antagonists Give Evidence of Dualsteric Binding at the M2 Muscarinic Acetylcholine Receptor” (J Med Chem, 2017):

Experiments:
[1] = biological target: T1, Muscarinic acetylcholine receptor M2 (Homo sapiens, UniProt P08172); experiment: Displacement of [3H]UNSW-MK259 from human muscarinic acetylcholine receptor M2 expressed in CHOK9 cells after 3 hrs by liquid scintillation counting assay; assay type: cell-based
[2] = biological target: T1, Muscarinic acetylcholine receptor M2; experiment: Displacement of [3H]UR-AP060 from human muscarinic acetylcholine receptor M2 expressed in CHOK9 cell homogenate after 3 hrs by liquid scintillation counting assay
[3] = biological target: T1, Muscarinic acetylcholine receptor M2; experiment: Displacement of [3H]NMS from human muscarinic acetylcholine receptor M2 expressed in CHO cells after 60 mins by scintillation counting assay; assay type: cell-based

CCCCCCOc1nsnc1C1=CCCN(C)C1 [XANOMELINE]
Ki [1]: 0.269 µM | Ki [2]: 4.47 µM | IC50 [3]: 0.0398 to 0.316 µM
